The entries are a selection whose mix differs from that of the whole data set. Activity calls are given as the source filed them.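 The calls were made as follows: active = ratio B-score over 3 SD below the library mean, with starting fluorescence within 5 SD of its mean; inactive = the rest, inconclusive results apart.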
These compounds were tested against Potassium channel subfamily K member 9 (Homo sapiens) (UniProt Q9NPC2) (assay: KCNK9 potassium channel inhibitors, primary screen, HEK293 cells, thallium flux (AID 488922)). Conditions: HEK293 KCNK9, FluxOR thallium flux fluorescence; at 10 µM.

By UniProt entry, the sequences of proteins in these tests, tags left out.
UniProt Q9NPC2, whole entry: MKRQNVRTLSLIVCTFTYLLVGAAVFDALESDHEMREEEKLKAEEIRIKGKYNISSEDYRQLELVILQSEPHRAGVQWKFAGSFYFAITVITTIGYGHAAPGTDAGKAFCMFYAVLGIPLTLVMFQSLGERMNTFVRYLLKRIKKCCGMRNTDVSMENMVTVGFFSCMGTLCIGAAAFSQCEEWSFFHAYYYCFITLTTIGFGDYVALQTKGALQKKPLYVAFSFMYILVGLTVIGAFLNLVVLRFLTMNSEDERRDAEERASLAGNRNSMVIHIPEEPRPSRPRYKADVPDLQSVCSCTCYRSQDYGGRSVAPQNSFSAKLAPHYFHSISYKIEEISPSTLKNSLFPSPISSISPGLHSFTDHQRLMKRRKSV

SMILES | outcome
COc1ccc(N/C(=N/P(=O)(N2CCOCC2)N2CCOCC2)N2CCOCC2)cc1 | inactive
COc1cc(I)ccc1[As](=O)(O)O | inactive
COc1ccc2nc(NP(=O)(c3ccccc3)c3ccccc3)sc2c1 | inactive
Cc1c2c(nc3ccccc13)SC(C(Cl)Cl)C2 (centres undefined) | inactive
CCN(CC)CCCOC(=O)C(O)(c1ccccc1)c1ccccc1 | inactive
Cc1cc(=O)[nH]c(N[N+](=O)[O-])n1 | inactive
O=C(OC1CN2CCC1CC2)C12CC3CC(CC(C3)C1)C2 (centres undefined) | inactive
O=[N+]([O-])c1cc([N+](=O)[O-])c(-c2ccn[nH]2)s1 | inactive
COc1ccc(OP(C)(=O)Nc2cccc(F)c2)cc1 (centres undefined) | inactive
CCN(CC)C(=S)SC(NC=O)C(Cl)(Cl)Cl (centres undefined) | inactive
CC(C)NC(=O)NP(=O)(Oc1ccccc1)Oc1ccccc1 | inactive
COc1ccccc1OP(C)(=O)Nc1cc(Cl)ccc1C (centres undefined) | inactive
Cc1cc(C)cc(OP(C)(N)=O)c1 (centres undefined) | inactive
ClCCSc1nnc(-c2cccnc2)o1 | inactive
CCOC(=O)c1ccc(NP(C)(=O)Oc2ccccc2)cc1 (centres undefined) | inactive
CC(C)c1ccc(OP(=O)(Nc2ccccn2)Oc2ccccc2F)cc1 (centres undefined) | inactive
Cc1ccc(NP(C)(=O)Oc2ccccc2)c(C)c1 (centres undefined) | inactive

SMILES | outcome
COc1ccccc1OP(C)(=O)Nc1ccc(C)cc1 (centres undefined) | inactive
Cc1cccc(C)c1OP(C)(N)=O (centres undefined) | inactive
CC(C)(C)c1ccc(OP(C)(=O)Nc2ccc(SC(F)(F)F)cc2)cc1 (centres undefined) | inactive
Cc1ccc(OP(=O)(Nc2ccc([N+](=O)[O-])cn2)Oc2ccc(C)cc2)cc1 | inactive
Cc1ccc2nc3c(c(C)c2c1)CC(C(Cl)Cl)S3 (centres undefined) | inactive
O=[N+]([O-])c1ccc2c(c1)C=Nc1ccccc1O2 | inactive
O=[N+]([O-])c1cc([N+](=O)[O-])c(Nc2cccnc2)c([N+](=O)[O-])c1 | inactive
O=[As](O)(c1ccc(O)cc1)c1ccccc1O | inactive
C[As](=O)(O)c1cccc(C(=O)O)c1 | inactive
COc1ccccc1OP(C)(=O)Nc1ccccc1 (centres undefined) | inactive
Cc1cc(SC(NC=O)C(Cl)(Cl)Cl)ncn1 (centres undefined) | inactive
O=P(Nc1ccccn1)(c1cccc2ccccc12)c1cccc2ccccc12 | inactive
O=[N+]([O-])c1ccc(Nc2ccc(Oc3ccc([N+](=O)[O-])cc3[N+](=O)[O-])cc2)c([N+](=O)[O-])c1 | inactive
CP(=O)(Nc1ccccc1Br)Oc1ccccc1 (centres undefined) | inactive
CP(=S)(Nn1cnnc1)Oc1ccccc1 (centres undefined) | inactive
CCOC(=O)Nc1cccc([As](=O)(O)O)c1 | inactive
Cc1cc(SC(NC(=O)c2ccccc2)C(Cl)(Cl)Cl)nc(C(C)C)n1 (centres undefined) | inactive

— PubChem BioAssay AID488922 (Johns Hopkins Ion Channel Center, 2010)
